# Test results taken from US20070037862A1, “Thiazolidinones, their production and use as pharmaceutical agents” (priority 2003, published 2007).
# The chains behind the UniProt entries cited, without tags or fusion partners.
# UniProt P53350, whole entry: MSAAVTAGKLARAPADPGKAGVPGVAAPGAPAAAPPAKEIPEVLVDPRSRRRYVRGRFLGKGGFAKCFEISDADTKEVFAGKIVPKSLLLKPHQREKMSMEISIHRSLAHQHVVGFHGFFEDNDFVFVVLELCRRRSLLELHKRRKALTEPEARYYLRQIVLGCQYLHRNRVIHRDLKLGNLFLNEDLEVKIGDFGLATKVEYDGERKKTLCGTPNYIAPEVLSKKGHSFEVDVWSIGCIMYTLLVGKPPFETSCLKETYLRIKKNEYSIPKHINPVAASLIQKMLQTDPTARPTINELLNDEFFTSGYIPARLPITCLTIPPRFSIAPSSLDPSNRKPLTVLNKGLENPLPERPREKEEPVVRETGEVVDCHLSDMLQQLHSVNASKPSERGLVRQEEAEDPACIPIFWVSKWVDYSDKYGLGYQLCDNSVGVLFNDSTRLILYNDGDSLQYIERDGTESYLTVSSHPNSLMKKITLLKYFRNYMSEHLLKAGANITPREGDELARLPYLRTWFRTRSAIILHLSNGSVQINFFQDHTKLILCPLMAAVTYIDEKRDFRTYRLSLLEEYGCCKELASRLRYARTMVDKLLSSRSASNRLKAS
# Molecular target: T1, Recombinant human Plk-1 (6×His) (Homo sapiens, UniProt P53350)
# T1 construct: 6xHis; made in house; host or cells: baculovirus-infected Hi5 insect cells
# Test: PLK enzyme assay
# Type: biochemical
# Method: Recombinant human Plk-1 (6×His) was purified from baculovirus-infected insect cells (Hi5).
# 10 ng of (produced in a recombinant manner and purified) PLK enzyme is incubated for 90 minutes at room temperature with biotinylated casein and 33P-γ-ATP as a substrate in a volume of 15 μl in 384-well Greiner small-volume microtiter plates (final concentrations in the buffer: 660 ng/ml of PLK; 0.7 μmol of casein, 0.5 μmol of ATP incl. 400 nCi/ml of 33P-γ-ATP; 10 mmol of MgCl2, 1 mmol of MnCl2; 0.01% NP40; 1 mmol of DTT, protease inhibitors; 0.1 mmol of Na2VO3 in 50 mmol of HEPES, pH 7.5). To complete the reaction, 5 μl of stop solution (500 μmol of ATP; 500 mmol of EDTA; 1% Triton X100; 100 mg/ml of streptavidin-coated SPA beads in PBS) is added. After the microtiter plate is sealed by film, the beads are sedimented by centrifuging (10 minutes, 1500 rpm). The incorporation of 33P-γ-ATP in casein is intended as a measurement of enzyme activity by β-counting.
# Test substances are used in various concentrations (0 μmol, as well as in the range of 0.01-30 ∥mol). The final concentration of the solvent dimethyl sulfoxide is 1.5% in all batches.
smiles,measurement,setting,value
CCOC(=O)C(C#N)=c1sc(=CNc2cccc(C)c2)c(=O)n1CC [Example 7],IC50,,0.046 µM
CCN(CC)CCNC(=O)c1c[nH]c2ccc(NC=c3s/c(=C(/C#N)C(=O)NCC(F)(F)F)n(CC)c3=O)cc12 [Example 330],IC50,,0.041 µM
CCOC(=O)C(C#N)=c1sc(=CNc2ccc(C(C)=O)cc2)c(=O)n1CC (mixture of isomers) [Example 132],IC50,"Table 3, Esters, read-out: Inhibition of Plk-1 IC50",0.081 µM

# Like-named read-outs stand apart in the source and are kept apart here.
